Source: patent US20100178299A1, “METHODS AND COMPOSITIONS FOR IMPROVING IMMUNE RESPONSES” (Northeastern University, priority 2007, published 2010)

Legend:
TNP-specific IgM [1] = details: caffeine 1 mg/ml in drinking water, 20 or 60% oxygen, TNP-KLH immunization
TNP-specific IgM [2] = experiment: TNP-KLH/CFA immunization with IFA booster, indirect ELISA of TNP-specific IgM (Example 2); type: in vivo, C57B1/6 mice; details: combined caffeine (1 mg/ml drinking water) and 60% oxygen

With `Cn1c(=O)c2c(ncn2C)n(C)c1=O` [caffeine, 1,3,7-trimethylxanthine] the “production of specific antibodies” value (TNP-specific IgM [1]) was “can enhance the production of specific antibodies of different classes of immunoglobulins” and the “production of immunoglobulins (antigen-specific antibodies, indirect ELISA)” value (TNP-specific IgM [2]) was “significantly improved production of immunoglobulins”.
